For the experiment, the target named is wild-type SEDLIN (HA-SEDLIN or cMyc-SEDLIN, expressed in COS7 cells) (human) (UniProt P0DI81). Description: native gel or EMSA; nuclear and cytoplasmic fractions (40 ug total protein) of COS7 cells transfected with cMyc-SEDLIN; 12% continuous non-denaturing PAGE in 1x Tris/Glycine buffer; Western blot with anti-cMyc. Background: Mobility shift assays separate free from complexed probe on a gel.

Take “wild-type SEDLIN (HA-SEDLIN or cMyc-SEDLIN, expressed in COS7 cells) (from UniProt P0DI81 1-140) (natural protein)”: the stoichiometry N turned out to be 2.

One may read the stoichiometry N as a count of units in the complex or per binding partner.
